# Measured values taken from US20230107277A1, “SUBSTITUTED PYRIDAZINE COMPOUND” (Astellas Pharma Inc., priority 2020, published 2023).
# How the values were obtained:
# [1] = system: Cuprizone-induced neuroinflammation model; conditions: mouse, in vivo
# [2] = system: α-synuclein fiber-induced neuroinflammation model; conditions: mouse, in vivo
# [3] = system: IL-1β produced in the blood; conditions: mice, 3 mg/kg oral, blood collected 1 hour and 6 hours after administration (FIG. 3)
smiles,measurement,setting,value
"Cc1c(N[C@@H]2CCCC[C@H]2O)nnc(-c2ccc(C(F)(F)F)cc2O)c1C [Example 63, 2-(6-{[(1R,2R)-2-hydroxycyclohexyl]amino}-4,5-dimethylpyridazin-3-yl)-5-(trifluoromethyl)phenol]",time to fall in hanging wire test,[1],significantly prolonged the time to fall
same,number of falls in hanging wire test,[2],significantly reduced the number of falls
same,amount of IL-1β produced in the blood,[3],decreased the amount of IL-1β produced
